{"sequences": {"note": "Sequences of proteins named here, by UniProt entry; tags and fusion partners are left off.", "UniProt P50750, whole entry": "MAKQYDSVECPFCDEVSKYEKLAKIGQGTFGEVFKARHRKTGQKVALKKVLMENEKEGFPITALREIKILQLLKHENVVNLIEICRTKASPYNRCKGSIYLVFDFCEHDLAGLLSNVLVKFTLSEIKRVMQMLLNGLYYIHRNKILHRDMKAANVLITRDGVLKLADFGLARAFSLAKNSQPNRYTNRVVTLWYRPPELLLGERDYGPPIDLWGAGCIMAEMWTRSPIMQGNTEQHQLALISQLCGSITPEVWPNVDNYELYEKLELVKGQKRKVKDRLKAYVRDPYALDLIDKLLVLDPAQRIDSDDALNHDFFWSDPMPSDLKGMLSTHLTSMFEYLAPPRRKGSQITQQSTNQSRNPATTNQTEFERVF"}, "source": "ChEMBL document CHEMBL4308846", "about": "“How Selective Are Pharmacological Inhibitors of Cell-Cycle-Regulating Cyclin-Dependent Kinases?” (J Med Chem, 2018)", "biological_target": "CDK9/cyclin T1 (Homo sapiens, UniProt P50750)", "test": "biochemical", "data": [{"smiles": "OCCCNc1cc(-c2ccnc(Nc3cccc(Cl)c3)n2)ccn1", "values": [{"measurement": "IC50", "result": 13, "unit": "nM"}]}]}
